Measured values published in patent publication US12371450B2.

Amino acid sequences for entries named in this document (tags omitted).
UniProt Q92633, whole entry: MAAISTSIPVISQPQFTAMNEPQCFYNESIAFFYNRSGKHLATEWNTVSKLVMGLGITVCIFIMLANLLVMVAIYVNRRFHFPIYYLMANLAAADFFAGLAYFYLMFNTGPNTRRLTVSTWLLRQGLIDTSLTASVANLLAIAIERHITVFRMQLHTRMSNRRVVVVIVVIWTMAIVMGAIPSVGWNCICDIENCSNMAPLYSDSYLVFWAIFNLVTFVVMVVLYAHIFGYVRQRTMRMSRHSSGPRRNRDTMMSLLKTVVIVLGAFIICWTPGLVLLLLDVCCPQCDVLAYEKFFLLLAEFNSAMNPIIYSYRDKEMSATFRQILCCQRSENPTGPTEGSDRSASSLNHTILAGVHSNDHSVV
UniProt Q9UBY5, whole entry: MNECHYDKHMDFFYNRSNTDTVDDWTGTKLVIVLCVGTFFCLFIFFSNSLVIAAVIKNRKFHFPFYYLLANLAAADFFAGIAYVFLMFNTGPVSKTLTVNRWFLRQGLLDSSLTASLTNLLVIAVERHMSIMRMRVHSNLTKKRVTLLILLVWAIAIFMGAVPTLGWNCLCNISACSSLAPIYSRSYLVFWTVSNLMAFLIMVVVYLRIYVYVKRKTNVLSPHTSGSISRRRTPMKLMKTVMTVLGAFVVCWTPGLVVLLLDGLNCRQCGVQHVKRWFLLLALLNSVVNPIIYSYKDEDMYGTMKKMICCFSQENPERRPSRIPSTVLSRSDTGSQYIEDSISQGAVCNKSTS
UniProt Q99677, whole entry: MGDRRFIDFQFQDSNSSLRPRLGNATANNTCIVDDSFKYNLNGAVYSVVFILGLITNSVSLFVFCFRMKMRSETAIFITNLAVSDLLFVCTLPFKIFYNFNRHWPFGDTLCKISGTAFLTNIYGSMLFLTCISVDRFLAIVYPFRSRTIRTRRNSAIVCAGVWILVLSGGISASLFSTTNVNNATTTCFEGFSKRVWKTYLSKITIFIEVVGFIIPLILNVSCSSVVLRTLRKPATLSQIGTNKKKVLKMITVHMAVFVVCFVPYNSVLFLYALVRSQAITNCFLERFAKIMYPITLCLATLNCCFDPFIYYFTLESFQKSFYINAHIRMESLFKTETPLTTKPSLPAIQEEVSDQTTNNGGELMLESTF
UniProt Q9HBW0, whole entry: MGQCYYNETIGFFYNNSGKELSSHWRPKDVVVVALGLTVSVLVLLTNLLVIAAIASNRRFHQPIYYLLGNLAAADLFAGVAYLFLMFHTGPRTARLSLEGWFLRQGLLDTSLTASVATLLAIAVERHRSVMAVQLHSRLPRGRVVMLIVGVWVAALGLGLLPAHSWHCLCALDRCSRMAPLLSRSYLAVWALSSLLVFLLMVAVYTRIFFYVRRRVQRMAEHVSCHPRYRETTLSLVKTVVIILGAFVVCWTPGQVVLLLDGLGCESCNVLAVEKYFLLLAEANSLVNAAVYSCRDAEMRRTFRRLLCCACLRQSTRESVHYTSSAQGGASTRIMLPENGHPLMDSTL
UniProt Q9H1C0, whole entry: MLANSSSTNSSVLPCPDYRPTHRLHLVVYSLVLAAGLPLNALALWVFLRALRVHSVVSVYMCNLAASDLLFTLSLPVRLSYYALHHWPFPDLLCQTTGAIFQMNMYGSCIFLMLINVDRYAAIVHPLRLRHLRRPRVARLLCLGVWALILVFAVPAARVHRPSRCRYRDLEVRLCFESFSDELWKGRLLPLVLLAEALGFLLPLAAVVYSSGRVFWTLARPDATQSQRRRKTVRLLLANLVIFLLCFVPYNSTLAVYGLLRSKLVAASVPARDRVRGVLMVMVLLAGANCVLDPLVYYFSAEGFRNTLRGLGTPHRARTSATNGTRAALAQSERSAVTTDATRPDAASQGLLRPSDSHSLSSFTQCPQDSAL
UniProt P43657, whole entry: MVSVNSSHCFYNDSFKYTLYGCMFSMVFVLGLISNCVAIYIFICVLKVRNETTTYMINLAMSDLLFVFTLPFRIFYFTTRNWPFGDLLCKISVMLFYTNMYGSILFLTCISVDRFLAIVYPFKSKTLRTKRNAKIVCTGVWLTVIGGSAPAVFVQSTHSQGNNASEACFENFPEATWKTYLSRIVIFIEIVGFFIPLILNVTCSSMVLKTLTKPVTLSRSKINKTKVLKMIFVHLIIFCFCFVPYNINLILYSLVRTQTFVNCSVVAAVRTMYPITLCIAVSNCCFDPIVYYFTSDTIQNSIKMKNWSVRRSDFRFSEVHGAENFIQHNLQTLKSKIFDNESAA

Experiments:
human LPA1 = human LPA1 (Homo sapiens, UniProt Q92633); assay: AP-TGFα release assay, agonist activity against human LPA1
Method: (§1) HEK293A or ΔLPA2/5/6 HEK293A was suspended in a Dulbecco-modified Eagle's medium (DMEM supplemented with 10% fetal calf serum, 100 U/mL penicillin, and 100 μg/mL streptomycin) to result in a concentration of 2×10^5cells/mL, and the thus obtained suspension was then seeded on a dish having a diameter of 100 mm (10 mL/dish). Thereafter, the cells were incubated at 37° C. in 5% CO2 for 24 hours.
(§2) The below-mentioned plasmid solution (500 μL) was mixed with a polyethyleneimine (PEI, Polysciences) solution (500 μL), and the mixed solution was then incubated at room temperature for 20 minutes. Thereafter, the reaction mixture was added dropwise into the culture supernatant (1 mL/dish). Thereafter, the cells were incubated at 37° C. in 5% CO2 for 24 hours.
(§3) Mock-transfected cells were transfected with an empty vector, instead of a GPCR expression vector. In addition, LPA1- and LPA5-expressing cells and control cells thereof were also transfected with a Gαq/i1 expression vector (0.5 μg/dish). […]
(§4) The cells were incubated at 37° C. in 5% CO2 for 60 minutes, and the plate was then centrifuged (190×g, 2 min). […] Immediately after the dispensing and 1 hour after the dispensing, OD405 was measured. […]
(§5) EC50 and Emax were calculated by fitting the data to a 4-parameter logistic curve, using Graphpad Prism 6 (Graphpad).

human LPA3 = human LPA3 (Homo sapiens, UniProt Q9UBY5); assay: AP-TGFα release assay, agonist activity against human LPA3
Method: as §1, §2, §3, §4, §5

human LPA4 = human LPA4 (Homo sapiens, UniProt Q99677); assay: AP-TGFα release assay, agonist activity against human LPA4
Method: as §1, §2, §3, §4, §5

ATX [1] = biological target: T1, ATX (Homo sapiens, UniProt Q13822); assay: Measurement of ATX activity by choline oxidase, using LPC as substrate; conditions: ATX 50 nM, LPC 16:0 300 μM, compound 0.01 to 10 μM, 37° C. 120 minutes, absorbance 555 nm
Method: ATX and LPC 16:0 were dissolved in 100 μL of a choline oxidase reaction solution (0.05% 4-aminoantipyrine, 0.05% TOOS (N-Ethyl-N-(2-hydroxy-3-sulfopropyl)-3-methylaniline, sodium salt, and dihydrate), 1 unit of peroxidase, 1 unit of choline oxidase, 50 mM Tris-HCl, pH 8.0, 140 mM NaCl, 5 mM KCl, 1 mM CaCl2, and 1 mM MgCl2) to result in final concentrations of 50 nM and 300 μM, respectively. Also, 2ccPA or 2carbaLPA was dissolved in the aforementioned choline oxidase reaction solution to a final concentration of 0.01 to 10 μM. The thus obtained solution was dispensed in a 96-well plate (100 μL/well). Thereafter, the plate was incubated at 37° C. for 120 minutes. After completion of the incubation, absorbance (555 nm) was measured using a plate reader (Biotek (Winooski, VT) Cytation 3 plate reader). Inhibitory activity was calculated according to the equation: inhibitory activity (%)=(1−increased absorbance 120 minutes after addition of inhibitor/increased absorbance 120 minutes after non-addition of inhibitor)×100.

human LPA2 = human LPA2 (Homo sapiens, UniProt Q9HBW0); assay: AP-TGFα release assay, agonist activity against human LPA2
Method: as §1, §2, §3, §4, §5

[2] = Plasma 2ccPA and 2carbaLPA in rats after oral enteric-coated capsule of 2ccPA; conditions: 2ccPA in enteric-coated capsule orally to SD rats, 2carbaLPA generated in the body, LC-MS/MS
Method: 2ccPA (19.70±1.39 mg) was enclosed in a capsule (size 9, Torpac Inc., Fairfield, NJ)). In order to create an enteric-coated capsule, the capsule was coated with Eudragit S100/L100 (4/1, 11 mg/cm^2, pH 6.8) (Evonik Japan Co., Ltd., Tsukuba, Japan). The thus obtained capsule was orally administered to 7-week-old SD rats (body weight: 190 to 220 g), into each of which a cannula had been transvenously inserted in advance, using a capsule injector (Natsume Seisakusho, Tokyo, Japan). The cannula-inserted rats were purchased from Oriental Yeast Co., Ltd. Blood (300 μL each) was recovered from a carotid artery catheter over time. EDTA-Na2 (1 mg/mL) was added to the recovered blood, and the thus obtained blood was then centrifuged (1000×g, 10 minutes, 4° C.) to obtain plasma. The plasma sample was immediately frozen with liquid nitrogen, and was then preserved at −80° C. until the measurement. A lipid fraction was extracted from the plasma sample in the same manner as that described in the study paper (Journal of Chromatography B 1076 (2018) 15-21, Quantitative determination of cyclic phosphatidic acid and its carba analog in mouse organs and plasma using LC-MS/MS). The measurement of 2ccPA and 2carbaLPA using a mass spectrometer was carried out in the same manner as the measurement of ATX activity using a mass spectrometer described in Example 3(1).

human LPA5 = human LPA5 (Homo sapiens, UniProt Q9H1C0); assay: AP-TGFα release assay, agonist activity against human LPA5
Method: as §1, §2, §3, §4, §5

human LPA6 = human LPA6 (Homo sapiens, UniProt P43657); assay: AP-TGFα release assay, agonist activity against human LPA6
Method: as §1, §2, §3, §4, §5

ATX [3] = biological target: T1, ATX; assay: Measurement of ATX activity using mass spectrometer (LPA 16:0 synthesis from LPC 16:0); conditions: ATX 50 nM, LPC 16:0 10 μM, compound final concentration of 10, 37° C., LC-MS/MS
Method: ATX and LPC 16:0 were suspended in 40 μL of a Tris buffer (50 mM Tris-HCl, pH 8.0, 140 mM NaCl, 5 mM KCl, 1 mM CaCl2, and 1 mM MgCl2) to result in final concentrations of 50 nM and 10 μM, respectively. Also, 2ccPA or 2carbaLPA was suspended in the aforementioned Tris buffer to result in a final concentration of 10 Thereafter, the obtained mixture was incubated at 37° C. At each reaction time, 160 μL of acidic methanol was added to and fully suspended in the reaction solution. Thereafter, the obtained solution was filtrated through a filter (0.2 μm Captiva Premium syringe filter, Agilent Technologies), so as to obtain a sample for QTRAP (registered trademark) 5500 triple quadrupole/linear ion trap mass spectrometer (SCIEX, Framingham, MA). The measurement was carried out in the same manner as that described in the study paper (Journal of Chromatography B 1076 (2018) 15-21, Quantitative determination of cyclic phosphatidic acid and its carba analog in mouse organs and plasma using LC-MS/MS). 2ccPA was measured at Q1/Q3=415.26/281.25, whereas 2carbaLPA was measured at Q1/Q3=433.27/151.02. Also, LPA was measured at Q1/Q3=409,24/153.00. The amount of LPA 16:0 that came to be synthesized at each reaction time was measured.

ERK = assay: ERK-phosphorylating action in SW1353 cells (Western blotting); conditions: 10 μM, 37° C. for 30 minutes, serum-free
Method: SW1353 cells were seeded at a density of 3×10^4 cells/well on a 6-well plate. On the following day, the cell culture solution was exchanged with a serum-free culture solution, and the cells were cultured for 6 hours. Thereafter, 2carbaLPA dissolved in 0.1% BSA/PBS or 0.1% BSA/PBS (Vehicle) was added to the culture to a final concentration of 10 μM.

- agonist activity against LPA1 (human LPA1; in words): exhibited agonist activity
- EC50 (human LPA1; read-out: agonist activity (EC50) against LPA1, HEK293A cells, Gαq/i1 co-expressed, 60 minutes): 10 nM
- agonist activity against LPA3 (human LPA3; in words): exhibited agonist activity
- EC50 (human LPA3; read-out: agonist activity (EC50) against LPA3, ΔLPA2/5/6 HEK293A cells, 60 minutes): 1.2 nM
- agonist activity against LPA4 (human LPA4; in words): exhibited agonist activity
- EC50 (human LPA4; read-out: agonist activity (EC50) against LPA4, HEK293A cells, Gαq/s co-expressed, Ki16425 added, 60 minutes): 0.7 nM
- agonist activity against LPA2 (human LPA2; in words): exhibited agonist activity
- EC50 (human LPA2; read-out: agonist activity (EC50) against LPA2, ΔLPA2/5/6 HEK293A cells, Gαq/s co-expressed, 60 minutes): 90 nM
- agonist activity against LPA5 (human LPA5; in words): exhibited agonist activity
- EC50 (human LPA5; read-out: agonist activity (EC50) against LPA5, ΔLPA2/5/6 HEK293A cells, Gαq/i1 co-expressed, Ki16425 added, 60 minutes): 27 nM
- agonist activity against LPA6 (human LPA6; in words): exhibited agonist activity
- EC50 (human LPA6; read-out: agonist activity (EC50) against LPA6, ΔLPA2/5/6 HEK293A cells, Ki16425 added, 60 minutes): 43 nM
- synthesis of LPA 16:0 by ATX (ATX [3]): the synthesis of LPA was suppressed
SMILES: CCCCCCCC/C=C\CCCCCCCC(=O)OCC(CO)CP(=O)(O)O (stereo not shown)
- inhibition of ATX activity (ATX [1]): inhibit ATX activity in a concentration-dependent manner
- time of peak of 2carbaLPA in blood sample after 2ccPA administration [2]: almost the same above period of time as a peak
- ERK phosphorylation (pERK band) (ERK): can phosphorylate ERK
